Bioassay records deposited in PubChem BioAssay by several laboratories.
NRP1-CendR mod: modulators of CendR peptide binding to human neuropilin-1. O14786. FAM-RPARPAR peptide binding to NRP-1, fluorescence polarization. inhibition, % at 25 µM. hit rate 0.85% among 360,000;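 active means inhibition or corrected inhibition above about 18%, plus a signal ratio from 0.5 to 1.5, limit read from the data, passing the limit was not always enough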
ASAP1 inh: inhibitors of human ASAP1 ArfGAP activity | Q9ULH1 | ASAP1-stimulated ARF1 GTP hydrolysis, GDP FP detection | inhibition, % at 16.5 µM | hit rate 0.19% among 360,000; in the data active means inhibition above about 25%
MC4R antagonist: blocks human MC4R cAMP signaling; AID 540295; MC4R-expressing cells, MTII-stimulated cAMP, LANCE TR-FRET; inhibition, % at 6.5 µM; hit rate 0.48% among 360,000;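 active means inhibition above its plate's cutoff, the mean of tested wells on that plate plus 3 SD, cut at about 29% in these data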
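Assay system: U2OS cells stably expressing human melanocortin 4 receptor (MC4R) / Dosing: 6.5 µM / Timing: compound 30 min, challenge 1 h, detection 1 h / Measured by: Eu-cAMP/anti-cAMP TR-FRET, emission 671 nm / Replicates: singlicate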
ARFGAP1 inhibitor: inhibits rat ARF GTPase activating protein 1. Q62848. Arfgap1-stimulated ARF1 GTP hydrolysis, GDP FP detection. inhibition, % at 16.5 µM. hit rate 0.26% among 360,000. AID 651572;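 active means inhibition above a per-plate limit, mean inhibition of low control wells plus 3 SD, cut at about 25% in these data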
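Material – truncated rat Arfgap1 GAP domain · Buffer or medium – HEPES-based buffer, pH 7.5 · Reagent – human ARF1(Δ1-17)-GTP substrate · Dosing – 16.5 µM single point, 1.26% DMSO · Schedule – GTP hydrolysis reaction 2 h at 25 °C · Technique – GDP detection by fluorescence polarization · Benchmarks – No-Arfgap1 wells (100%) versus DMSO full-reaction wells (0%) · Repeats – single replicate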
MC4R ag barr: activates human MC4R beta-arrestin recruitment | P32245 | U2OS MC4R beta-arrestin complementation, luminescence; percent of melanotan II response, DMSO zero | activation, % at 8.9 µM | hit rate 0.98% among 360,000 | AID 540308;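 active means activation above a per-plate cutoff, the mean activation of sample wells on that plate plus 3 SD, cut at about 8% in these data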
Yeast UUG start: alters start codon recognition fidelity in yeast; AID 602363; activity score, % at 18.7 µM; 350,000 tested, 0.13% active; S. cerevisiae UUG-firefly luciferase reporter, luminescence/redox ratio;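 active means replicate mean at a twofold rise or more, about +100% in these data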;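 further: firefly luciferase made from a UUG start codon reports start codon fidelity; reporter light over untreated wells divided by growth signal over untreated wells; some hits fall short of that in this replicate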
ASAP1 inh confirm: ASAP1 inhibition confirmed; shares compounds with ASAP1 inh; AID 624431; inhibition, % at 16.5 µM; hit rate 37% among 620; ASAP1-stimulated Arf1 GTPase, GDP fluorescence polarization;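 active means mean inhibition over triplicates exceeds the hit threshold derived for the earlier primary screening run, cut at about 25% in these data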
A number is an active result; 0 = inactive; - = no result given. In the library only some 2.3% were active in any assay of this set; here they are far more common.

SMILES	NRP1-CendR mod	ASAP1 inh	MC4R antagonist	ARFGAP1 inhibitor	MC4R ag barr	Yeast UUG start	ASAP1 inh confirm
O=C(CN1CCOCC1)NCC[C@H]1CC[C@@H](NC(=O)Nc2ccc(C(F)(F)F)cc2)[C@@H](CO)O1	-	-	-	-	-	0	-
CS(=O)(=O)N(Cc1ccc(Cl)cc1)c1ccc(C(=O)NCc2ccccn2)cc1	0	31	0	0	0	0	0
Cc1noc(C)c1NC(=O)N(C)C[C@H]1OCCCC[C@@H](C)Oc2ccc(NS(=O)(=O)c3ccccc3)cc2C(=O)N([C@H](C)CO)C[C@@H]1C	0	26	0	0	0	0	0
C/C=C/c1ccc2c(c1)O[C@@H](CN(C)C(=O)NCCC)[C@@H](C)CN([C@H](C)CO)S2(=O)=O	-	-	-	-	-	0	-
Cc1nc2c(nc1C)C(=O)c1ccccc1C2=O	0	0	0	0	0	-	-
COC1=C(Br)C(=O)c2nc(C)ccc2C1=O	0	27	0	0	0	0	0
Cn1c(=O)cc(SCC(=O)N2CCCC2)c2ccccc21	0	35	0	0	0	0	0
CN(Cc1ccccc1)C(=O)CSc1cc(=O)n(C)c2ccccc12	0	0	0	0	0	-	-
C[C@@H]1CN([C@H](C)CO)C(=O)c2cc(NC(=O)Nc3ccccc3)ccc2O[C@@H]1CN(C)C(=O)NC1CCCCC1	-	-	-	-	-	0	-
CCC(CO)Oc1cc(NCc2ccc(Cl)cc2)c2ncn(C(C)C)c2c1 (stereo unspecified)	0	0	0	0	0	0	-
CC[C@H](CO)Oc1cc(NCc2ccc(Cl)c(Cl)c2)c2ncn(C(C)C)c2c1	0	26	0	0	0	0	0
CN(c1ccccc1)c1ccc(/C=C(\CCC(=O)O)c2nc3ccccc3s2)cc1[N+](=O)[O-]	0	0	0	0	0	-	-
CNc1ccc(/C=C(\CCC(=O)O)c2nc3ccccc3s2)cc1[N+](=O)[O-]	0	30	0	0	0	-	52
CC1OC2CC(=O)OC2C2=C1C(=O)c1c(O)cccc1C2=O (stereo unspecified)	38	37	0	0	0	0	0
CN1C(=O)c2cc(NC(=O)c3ccccc3)ccc2OC[C@H]2O[C@H](CC(=O)NCC3CC3)CC[C@H]21	-	-	-	-	-	0	-
O=C(CN1CCOCC1)Nc1cccc(S(=O)(=O)N2CCCCCC2)c1	0	27	0	0	0	-	0
N#Cc1c(-c2ccc(Cl)cc2)ccn2nc(C3CCCCC3)nc12	0	27	0	0	0	0	0
COC(=O)CCc1nc2c(C#N)c(-c3ccc(Cl)cc3)ccn2n1	0	0	0	0	0	0	-
COc1ccc(C(=O)NC(C)c2ccc(-n3ccnc3)cc2)cc1[N+](=O)[O-] (stereo unspecified)	0	25	0	0	0	0	0
CCNC(=O)C[C@@H]1CC[C@@H](NC(=O)C2CCOCC2)[C@@H](CO)O1	-	-	-	-	-	0	-
Oc1ccc(Cl)cc1-c1cc(-c2cccc(Br)c2)n[nH]1	0	28	0	0	0	0	27
Oc1ccc(Cl)cc1-c1cc(-c2ccccc2Cl)[nH]n1	0	0	0	0	0	0	-
CC(Oc1ccccc1)C(=O)N1CCC2(CC1)Oc1ccc(F)cc1C(=O)C21CC(c2cccnc2)=NO1 (stereo unspecified)	0	26	0	0	0	0	0
CCNC(=O)C[C@H]1CC[C@H](NC(=O)NC2CCCCC2)[C@@H](CO)O1	-	-	-	-	-	0	-
CCC(=O)N1CC[C@@H]2[C@@H](CO)Nc3ccc(-c4ccccc4)cc3[C@@H]21	-	-	-	-	-	0	-
CC(=O)c1ccc(S(=O)(=O)NCC(=O)N2CCN(C/C=C/c3ccccc3)CC2)cc1	0	28	0	0	0	0	0
CC(C)(C)c1nc(N2CCN(C(=O)c3ccco3)CC2)c2nnn(Cc3ccccc3)c2n1	0	49	0	0	0	0	0
COc1cccc(-n2nnc3c(=O)n(CC(=O)Nc4ccccc4C)cnc32)c1	0	32	0	0	0	0	0
CCOc1ccccc1NC(=O)Cn1cnc2c(nnn2-c2cccc(OC)c2)c1=O	0	0	0	0	0	0	-
